Literature values in patent publication US20160058705A1, “COMPOSITIONS AND METHODS FOR TREATING CARDIOVASCULAR AND PULMONARY DISEASES AND DISORDERS WITH APELIN” (priority 2014, published 2016).
Like-named read-outs stand apart in the source and are kept apart here.

Details: Japp et al. (2008), cited from earlier work

Which plasma half-life does the source give for apelin here?
The plasma half-life was “less than 8 minutes”.

What about the plasma half-life (listed as regular commercial apelin) of the same substance?
The plasma half-life was ≤ 8 min.
